# scFv variants of Ab-14 (heavy chain) against a SARS-CoV-2 spike peptide

Values reported by Engelhart et al. 2022, doi:10.1038/s41597-022-01779-4 (FLAb copy).

Target peptide (SARS-CoV-2 spike, HR2 region): PDVDLGDISGINAS

The variants keep the light chain, the linker and the frameworks of Ab-14 (scFv order VH, a 15-residue (Gly4Ser)3 linker, VL).
VH: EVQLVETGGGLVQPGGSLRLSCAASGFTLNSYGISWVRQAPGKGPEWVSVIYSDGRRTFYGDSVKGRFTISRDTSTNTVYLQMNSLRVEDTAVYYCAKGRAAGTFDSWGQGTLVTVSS
VL: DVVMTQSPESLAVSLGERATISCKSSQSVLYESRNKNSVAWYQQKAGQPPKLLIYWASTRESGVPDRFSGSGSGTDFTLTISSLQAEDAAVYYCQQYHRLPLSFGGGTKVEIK

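The starting antibody came from a phage panning campaign against this peptide. In library AAYL49, one, two or three CDR residues were substituted; doubles and triples were drawn at random. AlphaSeq pools MATa yeast showing the antibodies with MATalpha yeast showing the peptide. After mating in shaken culture at 30 °C for 16 h, diploids were selected and their barcode pairs sequenced. A regression on co-assayed BCL2-family reference pairs converts the normalised counts of each replicate to an apparent Kd. Each pool was mated in three replicate cultures.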

Each variant is given by its three heavy chain CDRs, as the data file delimits them; those of the parent are GFTLNSYGIS, VIYSDGRRTFYGDSVK, GRAAGTFDS. Affinities are written as log10 Kd with Kd in nM; a lower number is a better binder. "nd" means that the variant was in the library but no mating with the target was seen in that replicate; the authors take this as a sign of poor binding, and no number exists. Nonspecific signal, from three strains lacking the peptide, appeared in 15% of pairings of library AAYL49, centred on 4.06 (5% of these signals below 2.83); values are not corrected for it. The control count says in how many pairings with the empty strains this scFv gave a signal, with their mean in brackets.

CDR-H1	CDR-H2	CDR-H3	replicates, log10 nM	signal with controls
GTTLNSYGIS	YIYSDGRRTFPGDSVK	GRAAGTFDS	nd 5.13 4.55	6 of 9 (4.00)
GFTLNSYKIS	VIYSDGRRTFYGDSVK	GRAAGTFDS	nd nd nd	2 of 9 (3.94)
GFTWNSYGIS	VIYSDGQRTFYGDSVK	GRAAGTNDS	nd 5.26 4.83	4 of 9 (4.22)
GFTLNSYPIS	VMYSDGRRTFYGQSVK	GRAAGTFDS	nd nd nd	0 of 9
GFTENSYGIS	VIYSDGERTSYGDSVK	GRAAGTFDS	nd nd nd	0 of 9
GATLNSYGDS	VIYSDGRRTFYGDQVK	GRAAGTFDS	4.50 3.77 nd	2 of 9 (4.40)
GFTLNSYGIS	VIYSDGWRTFYGDLVK	GPAAGTFDS	nd nd nd	0 of 9
GFTLNSYGIS	VIYSDGRRDFYGDSVK	GRAAGTFIS	3.31 2.94 3.27	3 of 9 (4.49)
GFTLNSYCIS	VIYSDGRRTFRGDSVK	GRADGTFDS	nd 4.96 nd	2 of 9 (4.96)
GFTLNSFGIS	VIYCDGRRTFYGLSVK	GRAAGTFDS	nd nd nd	1 of 9 (2.37)
GFTLNSYGIS	VIYSDGRRTFYGDSVK	GRAMGQFDE	2.12 1.60 1.64	1 of 9 (2.62)
GFTLNSYGIS	VIYSDGRRTFYGISGK	GRAAGTFDS	nd nd nd	1 of 9 (3.04)
GFTLNSYGIS	VIYGDGRRTKYMDSVK	GRAAGTFDS	nd 4.07 3.96	3 of 9 (3.40)
QFTLNEYGIS	VIYSDGRRTFYGDSVK	GREAGTFDS	4.05 nd 4.74	1 of 9 (3.20)
GFTRNSYGIS	VIYSDGRRTRYGYSVK	GRAAGTFDS	nd nd nd	1 of 9 (3.63)
GFVLNSYGIS	VIYSDGRRLFYGDSVK	GRAAGTFDF	2.77 4.93 4.55	2 of 9 (4.00)
GFTLPSYGIS	VIYSDGRHTFYGDSVK	GRAAGTFGS	5.66 4.05 6.70	5 of 9 (5.04)
GFTLRSYGIS	VCYSLGRRTFYGDSVK	GRAAGTFDS	nd nd 6.05	2 of 9 (4.72)
GFFLNSYGIS	VIYSDGRRTFYGWSVW	GRAAGTFDS	nd nd nd	0 of 9
GFTLNSYGIS	AIYSDGMRTFYVDSVK	GRAAGTFDS	nd nd nd	0 of 9
GFTGNSYGIS	VVYSDGRRTFYGDSVK	GRAAGTFPS	nd 5.42 nd	4 of 9 (4.13)
SFTLNSYGIS	VIPSVGRRTFYGDSVK	GRAAGTFDS	nd nd nd	1 of 9 (3.99)
GFTLNSYGIS	VEYSDGRQTTYGDSVK	GRAAGTFDS	nd nd nd	0 of 9
GFTLNSYGIS	VIYSDGRRTREGDSVK	GKAAGTFDS	nd nd nd	0 of 9
GFTLNSIGIS	VIYSDGRRTFYNDSVK	GRAAGTFQS	nd nd nd	0 of 9
GFTLNSEMIS	VIYSHGRRTFYGDSVK	GRAAGTFDS	nd 4.08 5.92	2 of 9 (4.00)
GFTLNSYPIS	VIYSDWRRTFYGDGVK	GRAAGTFDS	nd nd nd	0 of 9
GFTPNSYGIS	VIYSDGRRTFYGCSVK	GRAAGTFDS	nd nd nd	0 of 9
GFTLNSYGIS	EIYPDGRRTFYGDSVP	GRAAGTFDS	4.65 nd nd	4 of 9 (4.28)
GFTLNSYGIS	VIYSDGRRTFYGISVK	GRAAGTFDR	nd nd nd	1 of 9 (3.54)
GFTLNSYGIS	VIQSAGRRTFYGDSVK	NRAAGTFDS	3.69 nd nd	1 of 9 (2.80)
GFTLNSYGIS	VIYSDGRRTFYDDSVK	GREAGTFDS	nd 2.53 1.71	0 of 9
GFKLNSYGIS	VIYSCGRRTFYGDSVK	GRAAMTFDS	nd nd nd	3 of 9 (4.35)
GFTLNSAPIS	VIYSDGRRTFYGDSVK	GRAAGTHDS	3.95 2.96 5.55	2 of 9 (4.06)
GFTLNSYGIS	VLISDGRRTFYGDSVK	GRAAGTFDH	nd 3.42 nd	0 of 9
GFTWNSYGIS	VIYSDGRRTVYGDSVK	GRAAGNFDS	nd nd nd	0 of 9
GFTLLSYGIS	VIYADGRRTFYADSVK	GRAAGTFDS	-0.22 0.13 -0.06	0 of 9
GFPLNSYGIS	VIYSDGRRTFYGDSVK	GLAPGTFDS	2.17 2.12 2.13	0 of 9
GFTLSSYGIS	VIYSKGRRWFYGDSVK	GRAAGTFDS	nd nd nd	0 of 9
GVTLNSYGMS	VIYSDGYRTFYGDSVK	GRAAGTFDS	nd nd nd	0 of 9
GFTLNSYWIS	VIYSKGRRTFYGDSVK	GRAAGTFDQ	nd nd nd	0 of 9
GFTLNSYGIS	VIYSDGRRTFYGDSVI	GRPCGTFDS	nd nd nd	0 of 9
GFTLNSCGIS	VIYSDPRRTFYGDWVK	GRAAGTFDS	nd nd nd	0 of 9
GITLNSLGIS	VIYSDARRTFYGDSVK	GRAAGTFDS	nd nd 2.34	0 of 9
GFTLNVYGNS	VIYSDGRRTFYGDHVK	GRAAGTFDS	nd nd nd	2 of 9 (2.87)
GFTLNSYGIS	VIYSDGRRWFYGDSGD	GRAAGTFDS	nd nd nd	1 of 9 (3.03)
GFTLNSYGIS	VIYSDGRRTFYGDSVK	GRARKYFDS	nd 2.41 nd	2 of 9 (3.05)
GFTLNSYGIS	VIYSDLRRCFYGDSVK	GRAGGTFDS	nd 4.49 nd	2 of 9 (3.86)
GFTLNSLGIS	VIYSDGRITFYGDSVK	GRAADTFDS	nd nd 2.81	1 of 9 (2.78)
GFTLNSYGIS	VIYSDMRRTFYGDRVK	GRAAGAFDS	nd nd 4.77	4 of 9 (3.75)

Picked from the list: the 7 lowest averages where every replicate gave a value.

CDR-H1	CDR-H2	CDR-H3	replicates, log10 nM	signal with controls
GFTLLSYGIS	VIYADGRRTFYADSVK	GRAAGTFDS	-0.22 0.13 -0.06	0 of 9
GFTLNSYGIS	VIYSDGRRTFYGDSVK	GRAMGQFDE	2.12 1.60 1.64	1 of 9 (2.62)
GFPLNSYGIS	VIYSDGRRTFYGDSVK	GLAPGTFDS	2.17 2.12 2.13	0 of 9
GFTLNSYGIS	VIYSDGRRDFYGDSVK	GRAAGTFIS	3.31 2.94 3.27	3 of 9 (4.49)
GFVLNSYGIS	VIYSDGRRLFYGDSVK	GRAAGTFDF	2.77 4.93 4.55	2 of 9 (4.00)
GFTLNSAPIS	VIYSDGRRTFYGDSVK	GRAAGTHDS	3.95 2.96 5.55	2 of 9 (4.06)
GFTLPSYGIS	VIYSDGRHTFYGDSVK	GRAAGTFGS	5.66 4.05 6.70	5 of 9 (5.04)